Results taken from US20130331610A1, “Halogenated Pyrazolo[1,5-A]Pyrimidines, Processes, Uses, Compositions and Intermediates” (priority 2005, published 2013).

Sequences of proteins named here, by UniProt entry; tags and fusion partners are left off. Residues count along the entry.
UniProt P18508, 39-466: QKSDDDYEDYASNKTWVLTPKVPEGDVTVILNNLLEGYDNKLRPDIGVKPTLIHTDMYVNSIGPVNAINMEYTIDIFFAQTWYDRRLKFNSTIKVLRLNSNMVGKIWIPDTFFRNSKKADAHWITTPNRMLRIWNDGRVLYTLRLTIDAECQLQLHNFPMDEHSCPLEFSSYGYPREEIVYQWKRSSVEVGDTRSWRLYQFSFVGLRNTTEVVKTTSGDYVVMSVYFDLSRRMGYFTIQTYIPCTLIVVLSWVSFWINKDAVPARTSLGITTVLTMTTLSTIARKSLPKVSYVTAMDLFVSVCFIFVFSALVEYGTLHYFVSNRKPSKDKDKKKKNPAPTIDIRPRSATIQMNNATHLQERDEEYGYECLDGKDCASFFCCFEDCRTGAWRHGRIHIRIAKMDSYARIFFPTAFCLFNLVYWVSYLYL
UniProt P23576, 29-451: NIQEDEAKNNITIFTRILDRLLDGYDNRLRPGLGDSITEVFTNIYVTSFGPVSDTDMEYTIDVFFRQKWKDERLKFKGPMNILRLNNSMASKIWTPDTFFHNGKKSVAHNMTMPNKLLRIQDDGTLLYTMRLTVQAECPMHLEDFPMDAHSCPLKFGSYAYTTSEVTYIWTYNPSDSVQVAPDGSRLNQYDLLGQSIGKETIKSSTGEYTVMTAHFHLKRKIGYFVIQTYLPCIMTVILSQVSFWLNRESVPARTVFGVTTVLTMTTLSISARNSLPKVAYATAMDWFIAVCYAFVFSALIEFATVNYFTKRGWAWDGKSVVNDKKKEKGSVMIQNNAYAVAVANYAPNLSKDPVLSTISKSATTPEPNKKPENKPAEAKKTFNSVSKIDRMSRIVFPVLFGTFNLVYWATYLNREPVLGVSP

Assays:
[1] = test system: α1 subunit of GABAA receptor; settings: for selectivity α2/α1 ratio: ratio of α2 and α1 affinities (Ki)
Description: % specific binding=(X−N/T−N)×100

[2] = molecular target: α2 subunit of GABAA receptor (Rattus norvegicus, UniProt P18508+P23576); experiment: biochemical; settings: for inhibition at 10 µM: read-out: % Inhib 10^−5 M; for inhibition at 0.1 µM: read-out: % Inhib 10^−7 M
HepG2 cells = experiment: In vitro cell toxicity in HepG2 at 24 h (MTS); assay type: cell-based, human; settings: 100 μM
Method: In Vitro Determination of Cell Toxicity in HepG2 at 24 h
HepG2 cells (human hepatocellular carcinoma) were obtained from the American Type Culture Collection (ATCC) and cultured in Eagle's Minimum Essential Medium (Eagle) with Earle's balanced salt solution adjusted to contain 1.87 mM Glutamax™ I, 0.1 mM non-essential amino acids, 1.0 mM sodium pyruvate, 100000 U/L penicillin, 10000 μg/L streptomycin 90%; fetal bovine serum, 10%. Promega CellTiter 96® Aqueous Non-Radioactive Cell Viability Assay contains the tetrazolium compound [3-(4,5-dimethylthiazol-2-yl)-5-(3-carboxymethoxyphenyl)-2-(4-sulfophenyl)-2H-tetrazolium, inner salt (MTS). The conversion of MTS into the aqueous soluble formazan product is accomplished by dehydrogenase enzymes found in metabolically active cells. The quantity of formazan product is directly proportional to the number of living cells in culture.
Compounds were dissolved in DMSO to achieve an initial concentration of 100 mM. Serial dilutions were made from this stock solution into DMSO to achieve concentrations of 10, 1, 0.1 and 0.01 mM. The stock solution and serial dilutions were then diluted 1:100 with cell culture medium to obtain […] final assay concentrations of […]. The final DMSO concentration in all wells was 1% v/v. HepG2 cells were incubated with test compounds for 24 hours. Relative cell viability was determined spectrophotometrically at 490 nm following the addition of the MTS dye and further one-hour incubation. Tamoxifen was used as the positive control.
The percent absorbance of the samples treated with the test article was compared to the untreated sample to calculate the percentage of control.

Structure (SMILES)	selectivity α2/α1 ratio [1]	inhibition at 10 µM [2] [%]	inhibition at 0.1 µM [2] [%]	cell toxicity in HepG2, percentage of control (relative cell viability) (HepG2 cells) [%]	increased selectivity (α2/α1 ratio) ([1]; versus example 3 in WO2005014597) [%]	increased selectivity (α2/α1 ratio) ([1]; versus indiplon) [%]
CN(c1cccc(-c2ccnc3c(C(=O)c4cccs4)cnn23)c1)S(C)(=O)=O [Example 3 WO2005014597, N-{3-[3-(thiophene-2-carbonyl)-pyrazolo[1,5-a]pyrimidin-7-yl]-phenyl}-N-methyl-methanesulfonamide, reference compound]	5.0	–	–	–	–	–
C#CCN(c1cccc(-c2ccnc3c(C(=O)c4cccs4)cnn23)c1)S(C)(=O)=O [Example 16 WO2005014597, N-{3-[3-(thiophene-2-carbonyl)-pyrazolo[1,5-a]pyrimidin-7-yl]-phenyl}-N-prop-2-ynyl-methanesulfonamide, reference compound]	–	100	87.2	53.2	–	–
CC(=O)N(C)c1cccc(-c2ccnc3c(C(=O)c4cccs4)cnn23)c1 [Indiplon, N-{3-[3-(thiophene-2-carbonyl)-pyrazolo[1,5-a]pyrimidin-7-yl]-phenyl}-N-methyl-acetamide, reference compound]	7.7	99.2	65.7	69.8	–	–
CC(=O)N(C)c1cc(-c2ccnc3c(C(=O)c4cccs4)cnn23)ccc1F [Preparative example 2, N-{2-Fluoro-5-[3-(thiophene-2-carbonyl)-pyrazolo[1,5-a]pyrimidin-7-yl]-phenyl}-N-methyl-acetamide]	9.6	–	–	107.19	92	25

Where two headings read alike, the source gives them in different places.
